Legend:
[1] = test system: GSTs (H site) in mouse liver cytosol
[2] = test system: GSTs in mouse liver cytosol; details: competitor 25 μM, p≤0.05

Row | SMILES | competition of GST-ABP-H labeling of mouse liver cytosol (fluorescent bands) ([1]; SDS-PAGE fluorescence) | fold change inhibition of GSH-ABP-G labeling of GSTP1, M4, A3, M1, K1, and M2 [2] | potency in inhibiting GST-ABP-H enzyme labeling compared to S-hexylglutathione ([1]; mouse liver cytosol, 10 μM probe) [×]
1 | O=C1C(Cl)=C(Cl)C(=O)c2ccccc21 [Dichlon, 2,3 dichloro-1,4-naphthoquinone, reference compound] | decreases in all measurable fluorescent bands | > 2 | 
2 | C=C(CC)C(=O)c1ccc(OCC(=O)O)c(Cl)c1Cl [ethacrynic acid] |  |  | ~12

Source: patent US11891655B2, “Probe for selectively characterizing enzymes involved in xenobiotic metabolism and method of making and using the same” (Battelle Memorial Institute, priority 2017, dated 2024)
